{"sequences": {"note": "By UniProt entry, the sequences of proteins in these tests, tags left out. Residues count along the entry.", "UniProt P19099, 25-503 limits assumed": "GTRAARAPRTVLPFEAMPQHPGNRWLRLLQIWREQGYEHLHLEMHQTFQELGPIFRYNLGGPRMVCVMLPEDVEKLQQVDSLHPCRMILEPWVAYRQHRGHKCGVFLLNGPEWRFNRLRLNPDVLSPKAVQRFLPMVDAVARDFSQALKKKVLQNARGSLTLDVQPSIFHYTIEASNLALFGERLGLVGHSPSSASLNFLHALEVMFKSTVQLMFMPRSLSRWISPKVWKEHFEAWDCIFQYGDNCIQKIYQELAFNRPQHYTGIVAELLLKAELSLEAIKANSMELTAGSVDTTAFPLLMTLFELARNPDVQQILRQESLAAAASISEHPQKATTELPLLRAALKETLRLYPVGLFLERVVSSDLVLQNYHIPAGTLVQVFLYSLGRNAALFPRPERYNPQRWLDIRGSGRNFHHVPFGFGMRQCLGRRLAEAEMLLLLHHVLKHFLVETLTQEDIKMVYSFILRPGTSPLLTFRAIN", "UniProt P15538, 25-503 limits assumed": "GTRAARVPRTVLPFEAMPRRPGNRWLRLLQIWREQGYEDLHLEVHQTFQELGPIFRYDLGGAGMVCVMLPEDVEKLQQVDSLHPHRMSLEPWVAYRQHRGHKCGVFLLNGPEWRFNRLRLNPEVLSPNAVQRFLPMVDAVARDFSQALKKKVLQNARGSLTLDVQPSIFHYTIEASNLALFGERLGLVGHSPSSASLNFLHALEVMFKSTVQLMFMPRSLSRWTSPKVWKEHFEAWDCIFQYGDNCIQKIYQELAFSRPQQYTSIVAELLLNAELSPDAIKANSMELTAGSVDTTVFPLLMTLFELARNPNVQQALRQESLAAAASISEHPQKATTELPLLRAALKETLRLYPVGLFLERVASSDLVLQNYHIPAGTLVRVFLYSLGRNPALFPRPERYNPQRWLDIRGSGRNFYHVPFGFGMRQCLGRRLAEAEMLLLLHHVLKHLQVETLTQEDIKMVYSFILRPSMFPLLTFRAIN"}, "source": "patent US20260092074A1", "about": "“Annelated Pyridines as Steroidogenesis Inhibitors, Preparation Method and Use Thereof” (Guangzhou Vinnocent Pharmaceutical Limited, priority 2022, published 2026)", "key": {"human CYP11B2": {"target": "human CYP11B2 (Homo sapiens, UniProt P19099)", "test": "Inhibition of hCYP11B2 in transfected V79 cells", "assay_type": "cell-based", "details": "read-out: CYP11B2 IC50; hamster V79 cells expressing human CYP11B2; substrate 11-deoxycorticosterone 200 nM"}, "human CYP11B1": {"target": "human CYP11B1 (Homo sapiens, UniProt P15538)", "test": "Inhibition of hCYP11B1 in transfected V79 cells", "assay_type": "cell-based", "details": "read-out: CYP11B1 IC50; hamster V79 cells expressing human CYP11B1; substrate 11-deoxycortisol 200 nM"}}, "data": [{"smiles": "N#Cc1ccc(S(=O)(=O)N2CCSc3c(-c4ccc5ncoc5c4)cncc32)cc1", "values": [{"measurement": "IC50", "setting": "human CYP11B2", "result": 2.6, "unit": "nM"}, {"measurement": "IC50", "setting": "human CYP11B1", "result": 472, "unit": "nM"}]}]}
